From patent publication US20120172298A1, “GLP-1 AND FGF21 COMBINATIONS FOR TREATMENT OF DIABETES TYPE 2” (Novo Nordisk A/S, priority 2009, published 2012) come the findings set out here.

Assay [1] deals with T1, human GLP-1 receptor (Homo sapiens, UniProt P43220). Kind of assay: GLP-1 activity assay, stimulation of cAMP formation (AlphaScreen, membranes of BHK467-12A cells). Format: biochemical. Also noted: expressed in transfected cells; host or cells: BHK467-12A (tk-ts13), stably transfected; purified plasma membranes. To be noted: G2, G3: times higher, SEQ ID NO: 4: times that of G1. As to the method: The following assay may be used to determine the activity (potency) of GLP-1 compounds. In brief, the ability of GLP-1 compounds to stimulate formation of cyclic AMP (cAMP) in a medium containing the human GLP-1 receptor is measured. In principle, purified plasma membranes from a stable transfected cell line, BHK467-12A (tk-ts13), expressing the human GLP-1 receptor are stimulated with the GLP-1 compound in question, and the potency of cAMP production is measured using the AlphaScreen™ cAMP Assay Kit from Perkin Elmer Life Sciences. The cells are grown at 5% CO2 in DMEM, 5% FCS, 1% Pen/Strep (Penicillin/Streptomycin) and 0.5 mg/ml of the selection marker G418. Cells at approximate 80% confluence are washed 2× with PBS (Phosphate Buffered Saline) and harvested with Versene (aqueous solution of the tetrasodium salt of ethylenediaminetetraacetic acid), centrifuged 5 min at 1000 rpm and the supernatant removed. The additional steps are all made on ice. […] Suspension in Buffer 2, homogenization and centrifugation is repeated once and the membranes are resuspended in Buffer 2 and ready for further analysis or stored at −80° C. […] Formed cAMP is counted and measured at an AlphaFusion Microplate Analyzer. The EC50 values are calculated, e.g. using the Graph-Pad Prism software (version 5).

Assay [2] deals with T1, human GLP-1 receptor. In words: cell-based or functional assay.

As to “N-epsilon37-[2-(2-{2-[2-(2-{2-[(S)-4-Carboxy-4-({trans-4-[(19-carboxynonadecanoylamino)methyl]-cyclohexanecarbonyl}amino)butyrylamino]ethoxy}ethoxy)acetylamino]ethoxy}ethoxy)acetyl][Des-aminoHis7,Glu22,Arg26,Arg34,Lys37]GLP-1-(7-37) [compound G2]”, the “EC50 value relative to that of compound G1” value in assay [1] is recorded as “about 5 times”.

With “exendin-4(7-45) (the compound of SEQ ID NO: 4) (peptide)”, the EC50 of cAMP formation (AlphaScreen cAMP assay), relative to that of compound G1 (times the EC50 of compound G1) in assay [2] was determined as 0.3.
